Earlier results, collected in article PMC5641599 (Molecular Metabolism, 2017).
Like-named read-outs stand apart in the source and are kept apart here.

Chains of the proteins cited; added tags and fusions are not shown.
UniProt P32245, whole entry C271R: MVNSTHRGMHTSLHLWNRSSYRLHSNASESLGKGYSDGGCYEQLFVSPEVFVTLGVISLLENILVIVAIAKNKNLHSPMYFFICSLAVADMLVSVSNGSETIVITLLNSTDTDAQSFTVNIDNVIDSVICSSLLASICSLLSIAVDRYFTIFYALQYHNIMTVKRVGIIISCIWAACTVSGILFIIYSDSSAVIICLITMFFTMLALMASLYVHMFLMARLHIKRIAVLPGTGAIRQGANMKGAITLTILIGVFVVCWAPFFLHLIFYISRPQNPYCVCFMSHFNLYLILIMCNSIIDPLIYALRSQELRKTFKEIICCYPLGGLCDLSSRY
UniProt P32245, whole entry C271Y: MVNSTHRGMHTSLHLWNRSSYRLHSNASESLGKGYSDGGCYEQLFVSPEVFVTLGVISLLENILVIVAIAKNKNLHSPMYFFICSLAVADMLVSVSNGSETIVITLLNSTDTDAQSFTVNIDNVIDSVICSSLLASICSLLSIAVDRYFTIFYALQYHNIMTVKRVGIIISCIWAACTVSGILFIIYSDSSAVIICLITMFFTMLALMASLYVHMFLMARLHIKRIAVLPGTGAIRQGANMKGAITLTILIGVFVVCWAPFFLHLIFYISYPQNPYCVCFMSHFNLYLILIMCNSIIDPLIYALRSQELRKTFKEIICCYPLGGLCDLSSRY
UniProt P32245, whole entry F51L: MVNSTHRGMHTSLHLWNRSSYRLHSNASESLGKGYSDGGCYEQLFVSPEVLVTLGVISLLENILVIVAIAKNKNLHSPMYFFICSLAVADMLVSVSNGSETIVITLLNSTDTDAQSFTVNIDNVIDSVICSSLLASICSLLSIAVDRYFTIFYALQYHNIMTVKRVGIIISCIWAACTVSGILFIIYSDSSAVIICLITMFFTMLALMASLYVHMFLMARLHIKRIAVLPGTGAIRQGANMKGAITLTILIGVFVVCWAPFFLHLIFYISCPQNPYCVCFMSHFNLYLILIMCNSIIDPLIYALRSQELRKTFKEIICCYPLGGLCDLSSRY
UniProt P32245, whole entry H76R: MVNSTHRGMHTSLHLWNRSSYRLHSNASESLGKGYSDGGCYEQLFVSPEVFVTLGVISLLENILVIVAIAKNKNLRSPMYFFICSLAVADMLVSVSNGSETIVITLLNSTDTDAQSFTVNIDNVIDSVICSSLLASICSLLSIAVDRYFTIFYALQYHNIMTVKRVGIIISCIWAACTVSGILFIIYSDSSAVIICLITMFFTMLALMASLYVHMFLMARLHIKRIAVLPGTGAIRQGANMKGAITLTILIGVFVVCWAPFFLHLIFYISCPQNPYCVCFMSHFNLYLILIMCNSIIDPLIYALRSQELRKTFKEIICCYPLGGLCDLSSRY
UniProt P32245, whole entry I121T: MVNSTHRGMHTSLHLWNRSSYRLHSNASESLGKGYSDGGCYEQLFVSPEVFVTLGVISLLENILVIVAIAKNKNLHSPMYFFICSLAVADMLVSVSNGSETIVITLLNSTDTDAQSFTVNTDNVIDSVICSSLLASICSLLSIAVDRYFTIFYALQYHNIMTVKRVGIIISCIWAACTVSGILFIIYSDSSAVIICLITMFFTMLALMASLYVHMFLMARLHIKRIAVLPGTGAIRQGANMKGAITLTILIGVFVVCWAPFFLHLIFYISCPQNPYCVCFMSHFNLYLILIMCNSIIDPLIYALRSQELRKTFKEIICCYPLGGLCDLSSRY
UniProt P32245, whole entry I137T: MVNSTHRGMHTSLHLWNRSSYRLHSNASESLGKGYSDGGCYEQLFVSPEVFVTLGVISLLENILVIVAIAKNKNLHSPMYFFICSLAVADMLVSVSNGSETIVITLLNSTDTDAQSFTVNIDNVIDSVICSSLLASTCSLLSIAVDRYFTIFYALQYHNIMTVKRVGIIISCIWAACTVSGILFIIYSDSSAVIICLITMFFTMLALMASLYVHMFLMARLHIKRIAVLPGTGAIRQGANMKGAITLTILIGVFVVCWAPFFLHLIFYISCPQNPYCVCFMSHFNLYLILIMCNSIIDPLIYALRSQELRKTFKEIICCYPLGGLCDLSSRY
UniProt P32245, whole entry I170V: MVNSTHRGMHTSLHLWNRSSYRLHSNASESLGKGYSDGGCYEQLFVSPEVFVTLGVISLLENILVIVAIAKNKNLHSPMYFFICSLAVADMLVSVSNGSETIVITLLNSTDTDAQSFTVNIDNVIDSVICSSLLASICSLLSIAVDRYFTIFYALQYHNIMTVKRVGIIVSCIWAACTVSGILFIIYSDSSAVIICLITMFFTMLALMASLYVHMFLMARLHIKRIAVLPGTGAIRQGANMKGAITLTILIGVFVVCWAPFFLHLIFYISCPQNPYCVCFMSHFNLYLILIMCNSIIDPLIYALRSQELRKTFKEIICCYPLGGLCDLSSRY
UniProt P32245, whole entry I186V: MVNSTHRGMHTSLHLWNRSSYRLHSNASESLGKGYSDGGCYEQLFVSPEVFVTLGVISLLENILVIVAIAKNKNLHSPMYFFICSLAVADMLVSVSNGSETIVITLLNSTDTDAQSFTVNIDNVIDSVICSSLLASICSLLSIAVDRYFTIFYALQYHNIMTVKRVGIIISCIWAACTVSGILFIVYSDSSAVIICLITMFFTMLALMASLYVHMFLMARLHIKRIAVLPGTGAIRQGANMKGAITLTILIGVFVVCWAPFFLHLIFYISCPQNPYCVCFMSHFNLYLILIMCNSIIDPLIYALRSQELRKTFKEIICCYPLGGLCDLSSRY
UniProt P32245, whole entry I195S: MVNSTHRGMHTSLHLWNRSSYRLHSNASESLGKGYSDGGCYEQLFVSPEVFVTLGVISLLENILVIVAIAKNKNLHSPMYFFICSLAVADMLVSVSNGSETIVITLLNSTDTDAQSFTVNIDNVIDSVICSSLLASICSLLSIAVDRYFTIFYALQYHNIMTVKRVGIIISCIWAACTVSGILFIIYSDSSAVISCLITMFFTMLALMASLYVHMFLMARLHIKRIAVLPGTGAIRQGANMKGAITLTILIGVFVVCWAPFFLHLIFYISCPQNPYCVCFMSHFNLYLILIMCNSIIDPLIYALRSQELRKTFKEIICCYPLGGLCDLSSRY
UniProt P32245, whole entry I226T: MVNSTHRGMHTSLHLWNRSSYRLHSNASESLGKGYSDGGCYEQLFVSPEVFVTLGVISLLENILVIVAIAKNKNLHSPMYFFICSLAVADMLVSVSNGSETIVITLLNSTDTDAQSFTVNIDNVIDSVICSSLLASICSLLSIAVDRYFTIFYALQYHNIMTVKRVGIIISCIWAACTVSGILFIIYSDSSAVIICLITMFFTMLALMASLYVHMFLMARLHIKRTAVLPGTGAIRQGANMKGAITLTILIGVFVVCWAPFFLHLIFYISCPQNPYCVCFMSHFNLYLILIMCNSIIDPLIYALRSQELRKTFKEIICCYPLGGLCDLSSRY
UniProt P32245, whole entry I317T: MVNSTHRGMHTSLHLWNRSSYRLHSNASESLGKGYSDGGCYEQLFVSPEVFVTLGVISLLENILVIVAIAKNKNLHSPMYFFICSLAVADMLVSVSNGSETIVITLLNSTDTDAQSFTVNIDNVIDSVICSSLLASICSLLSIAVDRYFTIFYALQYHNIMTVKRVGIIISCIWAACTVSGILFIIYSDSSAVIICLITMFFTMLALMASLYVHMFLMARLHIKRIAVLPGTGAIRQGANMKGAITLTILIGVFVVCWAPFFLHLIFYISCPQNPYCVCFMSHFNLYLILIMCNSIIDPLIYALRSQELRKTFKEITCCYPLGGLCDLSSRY
UniProt P32245, whole entry L250Q: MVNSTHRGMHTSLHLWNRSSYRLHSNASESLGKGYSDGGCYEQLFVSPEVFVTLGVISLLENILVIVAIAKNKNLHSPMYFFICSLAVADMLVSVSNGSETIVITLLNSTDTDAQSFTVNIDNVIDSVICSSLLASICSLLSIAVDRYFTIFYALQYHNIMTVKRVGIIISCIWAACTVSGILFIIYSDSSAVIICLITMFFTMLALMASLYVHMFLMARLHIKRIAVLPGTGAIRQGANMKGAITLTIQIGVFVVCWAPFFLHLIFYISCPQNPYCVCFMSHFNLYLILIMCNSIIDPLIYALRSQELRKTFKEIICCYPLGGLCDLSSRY
UniProt P32245, whole entry M200V: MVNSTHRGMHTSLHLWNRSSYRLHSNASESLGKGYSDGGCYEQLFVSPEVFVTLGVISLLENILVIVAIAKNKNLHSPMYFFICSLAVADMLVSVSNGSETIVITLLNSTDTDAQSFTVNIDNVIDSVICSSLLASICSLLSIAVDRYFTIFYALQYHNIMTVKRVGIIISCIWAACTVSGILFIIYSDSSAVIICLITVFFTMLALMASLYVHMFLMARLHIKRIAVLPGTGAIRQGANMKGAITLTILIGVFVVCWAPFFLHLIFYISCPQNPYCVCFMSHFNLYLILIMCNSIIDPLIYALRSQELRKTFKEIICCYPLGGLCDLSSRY
UniProt P32245, whole entry M79I: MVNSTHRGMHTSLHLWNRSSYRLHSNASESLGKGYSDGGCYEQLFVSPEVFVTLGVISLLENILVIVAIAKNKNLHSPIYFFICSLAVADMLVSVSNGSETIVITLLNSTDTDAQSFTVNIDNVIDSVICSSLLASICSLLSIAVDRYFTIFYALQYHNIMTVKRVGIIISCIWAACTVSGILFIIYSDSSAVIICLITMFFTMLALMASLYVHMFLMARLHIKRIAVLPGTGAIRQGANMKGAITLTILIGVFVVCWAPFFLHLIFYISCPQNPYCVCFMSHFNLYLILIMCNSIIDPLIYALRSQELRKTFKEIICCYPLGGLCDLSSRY
UniProt P32245, whole entry R18L: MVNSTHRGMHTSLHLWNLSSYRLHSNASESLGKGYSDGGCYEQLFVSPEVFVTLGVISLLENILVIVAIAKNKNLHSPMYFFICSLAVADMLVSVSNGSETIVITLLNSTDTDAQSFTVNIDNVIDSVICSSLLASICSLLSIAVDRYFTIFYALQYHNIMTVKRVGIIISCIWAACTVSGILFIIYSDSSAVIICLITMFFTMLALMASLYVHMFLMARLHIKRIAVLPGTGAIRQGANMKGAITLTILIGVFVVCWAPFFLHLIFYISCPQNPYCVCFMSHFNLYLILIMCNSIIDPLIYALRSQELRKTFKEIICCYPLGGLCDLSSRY
UniProt P32245, whole entry R305S: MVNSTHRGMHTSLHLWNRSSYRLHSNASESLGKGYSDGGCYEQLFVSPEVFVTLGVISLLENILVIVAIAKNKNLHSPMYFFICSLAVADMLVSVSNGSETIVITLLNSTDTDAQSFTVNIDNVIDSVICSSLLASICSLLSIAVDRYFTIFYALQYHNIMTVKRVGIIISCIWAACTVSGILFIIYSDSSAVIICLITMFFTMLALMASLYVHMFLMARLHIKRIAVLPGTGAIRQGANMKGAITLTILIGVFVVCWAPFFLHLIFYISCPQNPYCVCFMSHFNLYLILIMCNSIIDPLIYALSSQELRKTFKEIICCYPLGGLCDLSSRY
UniProt P32245, whole entry R7H: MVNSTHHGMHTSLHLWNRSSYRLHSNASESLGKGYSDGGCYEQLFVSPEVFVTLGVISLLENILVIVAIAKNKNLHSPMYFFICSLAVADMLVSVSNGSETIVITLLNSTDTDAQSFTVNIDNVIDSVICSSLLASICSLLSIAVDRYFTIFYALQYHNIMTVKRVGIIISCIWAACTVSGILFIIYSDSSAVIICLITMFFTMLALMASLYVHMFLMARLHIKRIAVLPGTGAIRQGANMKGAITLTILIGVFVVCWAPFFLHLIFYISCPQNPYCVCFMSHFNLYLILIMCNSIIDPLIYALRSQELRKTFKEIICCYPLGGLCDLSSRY
UniProt P32245, whole entry S30F: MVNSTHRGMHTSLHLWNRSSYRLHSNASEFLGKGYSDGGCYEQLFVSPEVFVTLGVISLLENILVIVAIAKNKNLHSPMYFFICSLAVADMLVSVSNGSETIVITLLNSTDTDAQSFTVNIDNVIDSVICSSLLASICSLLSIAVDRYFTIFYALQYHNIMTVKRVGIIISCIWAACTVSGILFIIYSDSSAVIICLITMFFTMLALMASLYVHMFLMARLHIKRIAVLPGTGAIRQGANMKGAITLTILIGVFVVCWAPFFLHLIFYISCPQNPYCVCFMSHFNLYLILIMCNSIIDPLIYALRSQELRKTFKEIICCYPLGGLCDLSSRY
UniProt P32245, whole entry S36T: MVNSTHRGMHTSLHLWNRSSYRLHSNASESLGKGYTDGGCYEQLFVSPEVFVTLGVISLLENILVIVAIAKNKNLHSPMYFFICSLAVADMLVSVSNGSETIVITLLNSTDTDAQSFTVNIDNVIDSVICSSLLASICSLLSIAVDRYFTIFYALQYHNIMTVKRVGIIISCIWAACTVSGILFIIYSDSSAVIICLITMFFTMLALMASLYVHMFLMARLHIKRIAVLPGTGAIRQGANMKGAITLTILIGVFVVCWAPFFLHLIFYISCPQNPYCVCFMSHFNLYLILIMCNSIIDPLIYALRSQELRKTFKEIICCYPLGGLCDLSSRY

Legend:
[1] = target: MC4R variants (Homo sapiens, UniProt P32245, C271R); details: MC4R C271R, cited from earlier work
[2] = target: MC4R variants (Homo sapiens, UniProt P32245, C271Y); details: MC4R C271Y; ref Xiang Z, Biochemistry, 2006; cited from earlier work
[3] = target: MC4R variants (Homo sapiens, UniProt P32245, F51L); details: MC4R F51L; ref Xiang Z, Biochemistry, 2010; cited from earlier work
[4] = target: MC4R variants (Homo sapiens, UniProt P32245, H76R); details: MC4R H76R; ref Wang ZQ, Biochim Biophys Acta, 2011; cited from earlier work
[5] = target: MC4R variants (Homo sapiens, UniProt P32245, I121T); details: MC4R I121T; ref Xiang Z, Biochemistry, 2010; cited from earlier work
[6] = target: MC4R variants (Homo sapiens, UniProt P32245, I137T); details: MC4R I137T; ref Xiang Z, Biochemistry, 2006; cited from earlier work
[7] = target: MC4R variants (Homo sapiens, UniProt P32245, I170V); details: MC4R I170V, cited from earlier work
[8] = target: MC4R variants (Homo sapiens, UniProt P32245, I186V); details: MC4R I186V; ref Wang ZQ, Biochim Biophys Acta, 2011; cited from earlier work
[9] = target: MC4R variants (Homo sapiens, UniProt P32245, I195S); details: MC4R I195S; ref Wang ZQ, Biochim Biophys Acta, 2011; cited from earlier work
[10] = target: MC4R variants (Homo sapiens, UniProt P32245, I226T); details: MC4R I226T; ref Xiang Z, Biochemistry, 2010; cited from earlier work
[11] = target: MC4R variants (Homo sapiens, UniProt P32245, I317T); details: MC4R I317T; ref Xiang Z, Biochemistry, 2006; cited from earlier work
[12] = target: MC4R variants (Homo sapiens, UniProt P32245, L250Q); details: MC4R L250Q; ref Xiang Z, Biochemistry, 2006; cited from earlier work
[13] = target: MC4R variants (Homo sapiens, UniProt P32245, M200V); details: MC4R M200V; COS-7 cell line; ref Hinney A, J Clin Endocrinol Metab, 2006; cited from earlier work
[14] = target: MC4R variants (Homo sapiens, UniProt P32245, M79I); details: MC4R M79I; ref Wang ZQ, Biochim Biophys Acta, 2011; cited from earlier work
[15] = target: MC4R variants (Homo sapiens, UniProt P32245, R18L); details: MC4R R18L; ref Xiang Z, Biochemistry, 2010; cited from earlier work
[16] = target: MC4R variants (Homo sapiens, UniProt P32245, R305S); details: MC4R R305S; ref Wang ZQ, Biochim Biophys Acta, 2011; cited from earlier work
[17] = target: MC4R variants (Homo sapiens, UniProt P32245, R7H); details: MC4R R7H; ref Xiang Z, Biochemistry, 2010; cited from earlier work
[18] = target: MC4R variants (Homo sapiens, UniProt P32245, S30F); details: MC4R S30F; ref Xiang Z, Biochemistry, 2006; cited from earlier work
[19] = target: MC4R variants (Homo sapiens, UniProt P32245, S36T); details: MC4R S36T; COS-7 cell line; ref Hughes DA, Hum Genet, 2009; cited from earlier work
[20] = target: MC4R variants (Homo sapiens, UniProt P32245, T101A); details: MC4R T101A; ref Hinney A, J Clin Endocrinol Metab, 2006; cited from earlier work
[21] = target: MC4R variants (Homo sapiens, UniProt P32245, T112K); details: MC4R T112K; COS-7 cell line; ref Hinney A, J Clin Endocrinol Metab, 2006; cited from earlier work
[22] = target: MC4R variants (Homo sapiens, UniProt P32245, T178M); details: MC4R T178M; ref Xiang Z, Biochemistry, 2006; cited from earlier work
[23] = target: MC4R variants (Homo sapiens, UniProt P32245, T248A); details: MC4R T248A; ref Huang H, J Mol Endocrinol, 2012; cited from earlier work
[24] = target: MC4R variants (Homo sapiens, UniProt P32245, V103I); details: MC4R V103I; ref Xiang Z, Biochemistry, 2006; cited from earlier work
[25] = target: MC4R variants (Homo sapiens, UniProt P32245, V166I); details: MC4R V166I, COS-7 cell line, cited from earlier work
[26] = target: MC4R variants (Homo sapiens, UniProt P32245, V50M); details: MC4R V50M; ref Xiang Z, Biochemistry, 2010; cited from earlier work

β-MSH
cAMP EC50 - Ligand no.2 (WT fold) ([1]; COS-7 cell line, ref Tarnow P, J Biol Chem, 2003): 44.98 WT fold | cAMP EC50 - Ligand no.2 (WT fold) ([1]; ref Xiang Z, Biochemistry, 2010): 1140.00 WT fold | cAMP EC50 (WT fold) [2]: 366.67 WT fold | cAMP EC50 (WT fold) [3]: 25.70 WT fold | cAMP EC50 (WT fold) [4]: 0.36 WT fold | cAMP EC50 - Ligand no.2 (WT fold) [5]: 3.17 WT fold | cAMP EC50 - Ligand no.2 (WT fold) [6]: 1.02 WT fold | cAMP EC50 - Ligand no.2 (WT fold) ([7]; COS-7 cell line, ref Hughes DA, Hum Genet, 2009): 3.80 WT fold | cAMP EC50 - Ligand no.2 (WT fold) ([7]; ref Xiang Z, Biochemistry, 2006): 1.38 WT fold | cAMP EC50 - Ligand no.2 (WT fold) [8]: 0.33 WT fold | cAMP EC50 - Ligand no.2 (WT fold) [9]: 1.32 WT fold | cAMP EC50 - Ligand no.2 (WT fold) [10]: 1.77 WT fold | cAMP EC50 (WT fold) [11]: 1.40 WT fold | cAMP EC50 - Ligand no.2 (WT fold) [12]: 8.45 WT fold | cAMP EC50 - Ligand no.2 (WT fold) [13]: 0.27 WT fold | cAMP EC50 (WT fold) [14]: 87.65 WT fold | cAMP EC50 - Ligand no.2 [15]: 0.70 WT fold | cAMP EC50 (WT fold) [16]: 2.14 WT fold | cAMP EC50 - Ligand no.2 [17]: 0.60 WT fold | cAMP EC50 - Ligand no.2 [18]: 0.69 WT fold | cAMP EC50 - Ligand no.2 [19]: 3.20 WT fold | cAMP EC50 (WT fold) [20]: 1.78 WT fold | cAMP EC50 (WT fold) [21]: 0.40 WT fold | cAMP EC50 - Ligand no.2 (WT fold) [22]: 0.86 WT fold | cAMP EC50 - Ligand no.2 (WT fold) [23]: 1.13 WT fold | cAMP EC50 (WT fold) [24]: 0.14 WT fold | cAMP EC50 - Ligand no.2 (WT fold) ([25]; ref Hinney A, J Clin Endocrinol Metab, 2006): 1.81 WT fold | cAMP EC50 - Ligand no.2 (WT fold) ([25]; ref Hughes DA, Hum Genet, 2009): 2.90 WT fold | cAMP EC50 (WT fold) [26]: 1.80 WT fold
